# Apparent affinities of Ab-14 variants for a coronavirus HR2 peptide

The target is the same throughout: PDVDLGDISGINAS, from the HR2 region of SARS-CoV-2 spike.

The variants keep the heavy chain, the linker and the frameworks of Ab-14 (scFv order VH, the linker GGGGSGGGGSGGGGS, VL).
VH: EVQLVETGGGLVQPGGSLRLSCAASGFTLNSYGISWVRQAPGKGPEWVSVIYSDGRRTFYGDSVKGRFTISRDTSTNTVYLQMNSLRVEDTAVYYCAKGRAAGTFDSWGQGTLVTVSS
VL: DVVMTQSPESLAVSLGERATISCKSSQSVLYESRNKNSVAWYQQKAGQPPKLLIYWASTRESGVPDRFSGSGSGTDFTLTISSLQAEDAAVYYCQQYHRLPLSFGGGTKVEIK

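In library AAYL50, one, two or three CDR residues were substituted; doubles and triples were drawn at random. Affinity was read by AlphaSeq, a pooled yeast mating assay with surface-displayed partners. The frequency of each diploid, read from paired DNA barcodes, reflects how well the two displayed proteins bind. A regression on co-assayed BCL2-family reference pairs converts the normalised counts of each replicate to an apparent Kd. The assay was run in three technical replicates.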

Each variant is given by its three light chain CDRs, as the data file delimits them; those of the parent are KSSQSVLYESRNKNSVA, WASTRES, QQYHRLPLS. Every variant below is changed at E32 of the VL (sequential numbering). Values are log10 of the apparent Kd in nM; lower means stronger binding. A mean of the replicates is given; it leaves out those without a signal. Where no diploid with the target was found in any replicate, the entry reads "no signal": below detection, most likely a poor binder, though not proof of it. Three control strains display no target. For library AAYL50, 18% of the pairings with them gave a signal, with a median of 4.19 and one signal in twenty below 2.99, so weak values seen in few replicates may be background. Also given: how often the same scFv was detected with the empty control strains.

* KSSQSVLYKSRNKNSVA | WACTRES | QQYHRLPLS = 3.38 (3 of 3 replicates; controls 4 of 9)
* KSSQSVLYMSRNKTSVA | WASTRES | TQYHRLPLS = 5.01 (2 of 3 replicates; controls 5 of 9)
* KSSQSVLYNSSNKNSVA | WASTRES | QQYHRMPLS = 2.95 (3 of 3 replicates; controls 0 of 9)
* KSSQSVLWSSMNKNSVA | WASTRES | QQYHRLPLS = 0.92 (3 of 3 replicates; controls 0 of 9)
* KSSQSVPYQDRNKNSVA | WASTRES | QQYHRLPLS = 0.49 (3 of 3 replicates; controls 0 of 9)
* KSSQSVLGKFRNKNSVA | WASTRES | QQYHRLPLS = 1.56 (3 of 3 replicates; controls 3 of 9)
* KSSISVKYISRNKNSVA | WASTRES | QQYHRLPLS = 1.66 (3 of 3 replicates; controls 0 of 9)
* KSSQSVLYVSRNKNMVA | WSSTRES | QQYHRLPLS = 3.68 (1 of 3 replicates; controls 0 of 9)
* KSSQSVLYDSRAKNSVA | WASTQES | QQYHRLPLS = 3.99 (3 of 3 replicates; controls 1 of 9)
* KSSQSVWYPSRNKNSVA | WASTRES | QQYHRLPLS = 0.80 (3 of 3 replicates; controls 2 of 9)
* KSVQSVLYQSHNKNSVA | WASTRES | QQYHRLPLS = 1.25 (3 of 3 replicates; controls 3 of 9)
* KSSQSVLYGSIKKNSVA | WASTRES | QQYHRLPLS = 0.77 (3 of 3 replicates; controls 3 of 9)
* KSQQSVGYWSRNKNSVA | WASTRES | QQYHRLPLS = 1.68 (3 of 3 replicates; controls 2 of 9)
* KSSQSVLYTSRNKNSVA | WASTRES | QQYHYLDLS = 3.69 (1 of 3 replicates; controls 0 of 9)
* KSSQSVLYLSRNKNSVA | WASTRDS | QQYNRLPLS = 1.24 (3 of 3 replicates; controls 5 of 9)
* KSSQSVLGHSRNKNSVA | WASTRES | QQYHRLNLS = 4.40 (2 of 3 replicates; controls 3 of 9)
* KSSQSVLYASRNKNSVA | WASTRES | QQYHRLSKS = 4.05 (2 of 3 replicates; controls 3 of 9)
* KSSQSVLYTSRNKNSVA | WASPREV | QQYHRLPLS = no signal (0 of 3 replicates; controls 0 of 9)
* KSSQSVLYKSRNKNSVA | WHSTRNS | QQYHRLPLS = no signal (0 of 3 replicates; controls 1 of 9)
* KSSQSVLYWSFNKNDVA | WASTRES | QQYHRLPLS = no signal (0 of 3 replicates; controls 1 of 9)
* KSSQSVLYMSRNKNSVA | WASTREY | QQYHRLPLA = 1.67 (3 of 3 replicates; controls 1 of 9)
* TSSQSVLYISRNKNSVA | WASTRES | QQYHRYPLS = no signal (0 of 3 replicates; controls 0 of 9)
* KSSQSVLYASRNKNSVA | WWSTRES | QQYHQLPLS = no signal (0 of 3 replicates; controls 0 of 9)
* KSSQSVLYKSRNHNSVA | WASTRES | QQYHRLPAS = 3.10 (3 of 3 replicates; controls 5 of 9)
* KSSQSVLYYSRNKNSHA | WASTRES | QQYHRLPLS = 4.00 (1 of 3 replicates; controls 1 of 9)
* KSSQSVQYRSRNKNSVA | WASTRES | QQYHRLYLS = 1.88 (3 of 3 replicates; controls 0 of 9)
* SSSQSVLYFSRNKNSVA | WASTRES | QQYHRPPLS = no signal (0 of 3 replicates; controls 1 of 9)
* KSSQSVSYYSRNKNSGA | WASTRES | QQYHRLPLS = 5.27 (2 of 3 replicates; controls 4 of 9)
* KSSQSVLYVQRNKNSVA | WASHRES | QQYHRLPLS = 2.81 (3 of 3 replicates; controls 2 of 9)
* KSSQSVLYPSRNKNSVW | SASTRES | QQYHRLPLS = 4.21 (2 of 3 replicates; controls 5 of 9)
* KSSQLVLYYSRNKNSVA | WASTRES | QQYHRLILS = no signal (0 of 3 replicates; controls 0 of 9)
* KMSQSVLYCSRNKNSVP | WASTRES | QQYHRLPLS = 4.23 (3 of 3 replicates; controls 3 of 9)
* KSSQSVLYSSRNTNSVA | WASTRYS | QQYHRLPLS = 1.62 (3 of 3 replicates; controls 5 of 9)

The first 5 entries again:

- KSSQSVLYKSRNKNSVA | WACTRES | QQYHRLPLS: 3.38 (3 of 3 replicates; controls 4 of 9)
- KSSQSVLYMSRNKTSVA | WASTRES | TQYHRLPLS: 5.01 (2 of 3 replicates; controls 5 of 9)
- KSSQSVLYNSSNKNSVA | WASTRES | QQYHRMPLS: 2.95 (3 of 3 replicates; controls 0 of 9)
- KSSQSVLWSSMNKNSVA | WASTRES | QQYHRLPLS: 0.92 (3 of 3 replicates; controls 0 of 9)
- KSSQSVPYQDRNKNSVA | WASTRES | QQYHRLPLS: 0.49 (3 of 3 replicates; controls 0 of 9)

For reference, the parent read 0.65 as the reference entry and 1.68 as a member of this library.

Data: MIT Lincoln Laboratory AlphaSeq set, Engelhart et al. 2022, doi:10.1038/s41597-022-01779-4, as distributed in FLAb.